The source of these data is patent US7598223B2, “Methods for producing target cell reactive lymphocytes” (The Board of Trustees of the Leland Stanford Junior …, priority 2004, dated 2009).

This assay addresses tetramer+ CD8+ T cells of patient 520 (their T cell receptors). As to the kind of experiment: flow cytometry, tetramer staining of patient PBMC. (In general: A flow cytometer gives signals particle by particle.)

As to “HLA-A*0201/M26 peptide tetramer-phycoerythrin (from UniProt P61769 21-119) (peptide-MHC)”, the estimated percentage of total CD8+ cells that are also tetramer+/CD8+ was 0.12%.
